According to patent US20220024900A1, “Compounds and Their Use for Reducing Uric Acid Levels” (Acquist LLC, priority 2016, published 2022):

Target: T1, URAT1 (SLC22A12) (Homo sapiens, UniProt Q96S37)
T1 sequence (Q96S37 1-553): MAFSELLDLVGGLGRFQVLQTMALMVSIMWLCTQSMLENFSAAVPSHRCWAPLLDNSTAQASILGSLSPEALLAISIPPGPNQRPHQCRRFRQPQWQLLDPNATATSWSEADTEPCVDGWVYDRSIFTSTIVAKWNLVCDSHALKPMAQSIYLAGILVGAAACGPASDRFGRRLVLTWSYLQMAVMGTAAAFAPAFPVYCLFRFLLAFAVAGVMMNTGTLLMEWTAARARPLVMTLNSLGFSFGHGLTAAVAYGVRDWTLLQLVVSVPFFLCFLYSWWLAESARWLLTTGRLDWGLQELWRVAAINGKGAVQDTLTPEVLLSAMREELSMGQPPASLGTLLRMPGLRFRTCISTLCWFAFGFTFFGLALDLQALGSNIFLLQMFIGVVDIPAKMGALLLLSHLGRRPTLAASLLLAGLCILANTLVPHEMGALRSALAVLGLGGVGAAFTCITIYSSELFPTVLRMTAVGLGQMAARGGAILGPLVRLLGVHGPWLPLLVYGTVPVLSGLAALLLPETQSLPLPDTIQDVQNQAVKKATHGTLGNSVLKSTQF
Conditions: verbal rating, both assays

Compound: CC(C)Sc1nc(O)c(C(=O)Nc2ccc(-c3c[nH]nn3)cc2)c(=O)[nH]1 [Formula (IId), N-(4-(1H-1,2,3-triazol-5-yl)phenyl)-4-hydroxy-2-(isopropylthio)-6-oxo-1,6-dihydropyrimidine-5-carboxamide]
- bifunctional inhibition (URAT1 and xanthine oxidase): particularly effective bifunctional inhibitor
